Tested on: C57BL/6 mice
Assay: Veno-occlusive disease (VOD/SOS) blinded histological score in C57BL/6 mice
Settings: C57BL/6 mice gavaged daily for 14 days; 6-TG 2.5, 6-MP ≦5, methyl-6-MP ≦5, methyl-6-TG ≦2.5 mg/kg body weight/day

SMILES | SOS (VOD)
Sc1ncnc2nc[nH]c12 [Formulation 6-MP, 3,7-dihydropurine-6-thione] | not 6-MP or their methylated bases causes SOS
Nc1nc2nc[nH]c2c(=S)[nH]1 [Formulation 6-TG, 2-amino-6,7-dihydro-3H-purine-6-thione] | SOS (VOD) was only observed in the mice treated with 6-TG

From patent US20130005749A1, “NOVEL FORMULATION AND TREATMENT METHODS” (The University of Queensland, priority 2011, published 2013)
